According to patent publication US10653796B2, “Liposomes containing cell penetrating peptides and tetraetherlipids for the oral delivery of macromolecules” (Universität Heidelberg, priority 2015, dated 2020):

Columns and labels:
[1] = Radioactivity at determined time points after oral application of radiolabeled substances; assay type: in vivo; settings: radiolabeled substance
A431 = experiment: Tumor accumulation of radiolabeled Cetuximab after oral application; assay type: in vivo, Balb/c mice; settings: oral liposomes containing 1 mol-% cyclic CPP-conjugate vs free, A431 tumor bearing mice
Description: In order to determine the tumor enrichment of Cetuximab incorporated into the liposomes containing 1 mol-% of the cyclic CPP-conjugate, respective liposomes were administered into tumor bearing mice. To obtain these mice, the cell line A431 was injected into Balb/c mice (overexpression of EGFR). The antibody Cetuximab was radiolabeled, incorporated into the liposomes and afterwards applicated orally into the mice.
The animal study was performed according to local authorities using male Wistar rats with a body weight of about 200-250 g. For the determination of the tumor enrichment of Cetuximab, the antibody was radiolabeled with ^131I and incorporated into the liposomal formulation containing 1 mol-% of the cyclic CPP-phospholipid-conjugate and compared with Cetuximab free/i.v. as described previously. At several time points, the tumor enrichment was measured by direct counting of the radiolabeled sample. Briefly, groups (n≥3) of male Wistar rats were formed. Prior to 12 h of the experiment, the rats were kept without food, but with free access to water. […] The blood was removed, weighed and the radioactivity was measured using a Berthold LB 951 G counter in comparison with standards. The blood-associated activity was related to the total injected dose (ID) and expressed as a percentage of the total injected dose per gram of tissue (% ID/g tumor).

Question: For “Cetuximab: antibody incorporated into the liposomes; tested in EGFR-overexpressing A431 tumor mice”, which “mucosal uptake by the liposomal formulations” value [1] is on record?
Answer: strongly enhanced mucosal uptake

Question: And the tumor accumulation (A431)?
Answer: significant increase
